System: HSP27 mRNA expression in A431 tumors
Assay: A431 xenograft mouse tumor model, HSP27 gene silencing in tumors
Format: in vivo, BALB/c nude mice
Protocol: The mouse study was performed at CrownBio (China) according to standard protocols and procedures. Model: Subcutaneous A431 Human Epidermoid Carcinoma Xenograft Model in female BALB/c nude Mice. Tumor volume was monitored and tumor samples were collected for gene silencing analysis (see below)

cetuximab-Cys-(SO1861-L-trifunctional linker-L-HSP27BNA)^3,7: SO1861-L-trifunctional linker-L-HSP27BNA conjugated with its third arm to cysteine residues of cetuximab
reduction of HSP27 gene expression in tumors compared to vehicle control (1 dosing 30 mg/kg i.p., tumor samples 72h after first dosing): 25% | reduction in HSP27 mRNA expression in tumors compared to single dosing of mono therapies (1 dosing 30 mg/kg i.p., versus cetuximab-SO1861 or cetuximab-HSP27BNA conjugates): 40% | tumor targeted gene silencing (A431 tumor bearing mice, compared to the controls): efficient tumor targeted gene silencing

— patent US20250195682A1, “IMPROVED CELL-TARGETING BINDING MOLECULE” (priority 2018, published 2025)
